Measurements published in PubChem BioAssay AID624467 (The Scripps Research Institute Molecular Screening Center, 2012).
The list shows a part of the results, in another mix than the full data. Activity calls are given as the source filed them.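 The calls were made as follows: active = activation above the mean activation of all test compounds in the run plus 3 SD (cut at about 38% in these data); inactive = the rest.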

The chains behind the UniProt entries cited, without tags or fusion partners.
UniProt Q96RJ0, whole entry: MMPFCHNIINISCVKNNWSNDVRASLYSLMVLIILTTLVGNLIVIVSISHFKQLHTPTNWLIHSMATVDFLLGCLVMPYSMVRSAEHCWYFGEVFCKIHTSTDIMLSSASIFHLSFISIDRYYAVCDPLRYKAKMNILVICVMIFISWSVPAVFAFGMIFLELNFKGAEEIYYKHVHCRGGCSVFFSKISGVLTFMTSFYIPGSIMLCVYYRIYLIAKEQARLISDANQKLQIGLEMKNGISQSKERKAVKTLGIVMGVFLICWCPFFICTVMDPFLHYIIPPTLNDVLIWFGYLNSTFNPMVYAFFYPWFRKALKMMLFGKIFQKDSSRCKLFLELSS

What follows are compounds tested against Trace amine-associated receptor 1 (Homo sapiens) (UniProt Q96RJ0) (assay: activators of TAAR1 calcium mobilization – Fluo-8 calcium fluorescence, CHO RD-HGA16 cells, primary screen (AID 624467)). Conditions: CHO RD-HGA16 TAAR1, Fluo-8 calcium fluorescence; at 3 µM; hits give high values; vehicle wells 0%, saturating PEA agonist 100%.

| SMILES | activation |
| --- | --- |
| CCC(CO)(C(=O)OC1CN2CCC1CC2)c1ccccc1 (configuration not stated) | inactive: 10.8% |
| COc1cccc(C(c2nnnn2C2CCCC2)N2CCC(n3c(=O)[nH]c4ccccc43)CC2)c1OC (configuration not stated) | inactive: 10.7% |
| COc1cc(OC)cc(C(=O)NCC2(N3CCOCC3)CCCCC2)c1 | inactive: 4.17% |
| COc1cccc(C(=O)N(c2cc(C)cc(C)c2)C2CCN(C(=O)OC(C)(C)C)CC2)c1 | inactive: 0.91% |
| CN1CCC(Nc2ccc(Cl)cc2)CC1 | inactive: 0.44% |
| CN1CCC(Nc2ccc(F)c(Cl)c2)CC1 | inactive: 8.19% |
| CCOc1ncccc1C(=O)NCC1(N2CCOCC2)CCCCC1 | inactive: 14.5% |
| CCCOc1ccc(C(=O)NCC2(N(C)C)CCCCC2)cc1 | inactive: 7.4% |
| O=c1[nH]c2ccccc2n1C1CCN(C(c2cc3ccccc3o2)c2nnnn2C2CCCC2)CC1 (configuration not stated) | inactive: 2.21% |
| O=C(O)C1(Nc2ccccc2)CCN(Cc2ccccc2)CC1 | inactive: 2.5% |
| NN(c1ccccc1)C1CCN(CCc2ccccc2)CC1 | inactive: 4.09% |
| CC(C)(C)OC(=O)N1CCC(Nc2ccccc2)CC1 | inactive: 12% |
| CC(C)(C)n1nnnc1C(c1ccnc2ccccc12)N1CCC(n2c(=O)[nH]c3ccccc32)CC1 (configuration not stated) | inactive: 12.8% |
| CCN1CCC(Nc2cccc(F)c2)CC1 | inactive: 5.05% |
| COc1ccc(C(c2nnnn2C2CCCCC2)N2CCC(n3c(=O)[nH]c4ccccc43)CC2)cc1 (configuration not stated) | inactive: 14% |
| Cc1ccccc1NC1(C#N)CCN(Cc2ccccc2)CC1 | inactive: 2.01% |
| Cn1c(=O)[nH]cc(N(CCCl)CCCl)c1=O | inactive: 5.31% |
| CN(C)c1ccc(C(=O)NCC2(N3CCCCC3)CCCCC2)cc1 | inactive: -0.14% |
| O=C(NCC1(N2CCCCC2)CCCCC1)c1ccco1 | inactive: 9.47% |
| O=c1[nH]c2ccccc2n1C1CCN(C(c2ccnc3ccccc23)c2nnnn2C2CCCCC2)CC1 (configuration not stated) | inactive: 36.4% |
| COc1cc(OC)cc(C(=O)NCC2(N3CCCCC3)CCCCC2)c1 | inactive: -1.44% |
| CCC(c1nnnn1C1CCCCC1)N1CCC(n2c(=O)[nH]c3ccccc32)CC1 (configuration not stated) | inactive: 14.8% |
| CC(=O)N(c1ccccc1)C1CCNCC1 | inactive: 1.46% |
| COc1cccc(C(c2nnnn2C2CCCCC2)N2CCC(n3c(=O)[nH]c4ccccc43)CC2)c1OC (configuration not stated) | inactive: 16.5% |
| Cc1ccc(NC2(C#N)CCN(Cc3ccccc3)CC2)cc1 | inactive: 4.38% |
| Fc1ccccc1NC1CCN(Cc2ccccc2)CC1 | inactive: 0.55% |
| Cc1ccc(C(=O)NCC2(N3CCCCC3)CCCCC2)o1 | inactive: -0.22% |
